System: serum Aβ1-40 and Aβ1-42
Experiment: amylin challenge test: i.p. injection, serum Aβ1-40 and Aβ1-42 by ELISA, Tg2576 mice
Assay type: in vivo
Conditions: injection of human CGRP instead of amylin
Description: TgAPP2576 mice (n=5) and control mice (n=5) were used. Intraperitoneal injection of amylin (20 mg/kg) was performed, and blood was drawn and collected at pre-injection, after injection at 5 minutes, 1 hr and 24 hrs. Serum Aβ1-40 and Aβ1-42 were measured using ELISA assay. The results of serum Aβ1-40 and Aβ1-42 for each individual mouse are shown. This experiment has been repeated twice for each mouse and similar results were obtained.
As shown at FIGS. 3A-3E, amylin injection removes Aβ from the brain into blood in APP transgenic mice. Both the Tg2576 and wild type (WT) mice were used for the amylin challenge test. FIGS. 3A-3B. Amylin (20 mg/kg) was intraperitoneally injected (i.p), and blood was drawn and collected at the time points of pre-injection (the control n=7; Tg2576 n=11), after injection 5 minutes (the control n=7; Tg2576 n=6), 1 hr (the control n=7; Tg2576 n=10) and 24 hrs (the control n=7; Tg2576 n=11). Serum Aβ1-40 and Aβ1-42 were measured by using the ELISA assays. FIGS. 3C-3E. The levels of serum Aβ1-40 and Aβ1-42 at pre-injection of amylin were treated as 1 s, and the relative fold increase after amylin injection at each time point was shown and compared with the pre-injection level by using two-way ANOVA. ***p<0.01; **p<0.05 and *p<0.10.
FIGS. 6A-6D depict amylin injection and serum Aβ in mice. […] Serum Aβ1-40 and Aβ1-42 were measured by using the ELISA assays. […]

“calcitonin gene-related peptide (ACDTATCVTHRLAGLLSRSGGVVKNNFVPTNVGSKAF; Calcitonin gene-related peptide 1; UniProt P06881 83-119, looked up) [human CGRP]” was tested, and the “surge of serum Aβ after injection” value was “no significant surge”.

Reference: patent US9814761B2, “Compositions, methods and assays comprising amylin or amlyin analogs for abeta-peptide mediated disorders” (TRUSTEES OF BOSTON UNIVERSITY, priority 2012, dated 2017)
